According to patent US9730938B2, “Bruton's tyrosine kinase inhibitor combinations and uses thereof” (Pharmacyclics LLC, priority 2014, dated 2017):

Tested on: OCI-LY-10
Assay: Combined drug treatment cell viability, CellTiter-Glo assay (Example 2)
Details: ibrutinib 0.256 nM; JAK3 10 μM / MCL-1 3 μM / medium alone; 3 days

C=CC(=O)N1CCC[C@@H](n2nc(-c3ccc(Oc4ccccc4)cc3)c3c(N)ncnc32)C1 [ibrutinib, 1-((R)-3-(4-amino-3-(4-phenoxyphenyl)-1H-pyrazolo[3,4-d]pyrimidin-1-yl)piperidin-1-yl)prop-2-en-1-one]
luminescence (CellTiter-Glo): 40290.71
